Laboratory results from article PMC10755728, “Inhibitors of the Elastase LasB for the Treatment of Pseudomonas aeruginosa Lung Infections” (ACS Central Science, 2023).

Sequences of proteins named here, by UniProt entry; tags and fusion partners are left off. Residues count along the entry.
UniProt P03956, 100-469 limits assumed: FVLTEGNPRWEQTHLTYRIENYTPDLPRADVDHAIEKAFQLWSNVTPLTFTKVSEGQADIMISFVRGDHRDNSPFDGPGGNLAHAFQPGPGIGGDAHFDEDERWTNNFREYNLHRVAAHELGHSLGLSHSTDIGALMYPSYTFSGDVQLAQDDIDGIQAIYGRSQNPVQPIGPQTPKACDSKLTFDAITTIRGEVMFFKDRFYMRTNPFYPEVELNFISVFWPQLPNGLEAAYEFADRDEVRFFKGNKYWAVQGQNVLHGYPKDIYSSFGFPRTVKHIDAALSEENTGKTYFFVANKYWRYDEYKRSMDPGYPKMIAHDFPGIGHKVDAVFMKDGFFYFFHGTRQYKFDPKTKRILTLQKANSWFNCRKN
UniProt P78536, 215-824 limits assumed: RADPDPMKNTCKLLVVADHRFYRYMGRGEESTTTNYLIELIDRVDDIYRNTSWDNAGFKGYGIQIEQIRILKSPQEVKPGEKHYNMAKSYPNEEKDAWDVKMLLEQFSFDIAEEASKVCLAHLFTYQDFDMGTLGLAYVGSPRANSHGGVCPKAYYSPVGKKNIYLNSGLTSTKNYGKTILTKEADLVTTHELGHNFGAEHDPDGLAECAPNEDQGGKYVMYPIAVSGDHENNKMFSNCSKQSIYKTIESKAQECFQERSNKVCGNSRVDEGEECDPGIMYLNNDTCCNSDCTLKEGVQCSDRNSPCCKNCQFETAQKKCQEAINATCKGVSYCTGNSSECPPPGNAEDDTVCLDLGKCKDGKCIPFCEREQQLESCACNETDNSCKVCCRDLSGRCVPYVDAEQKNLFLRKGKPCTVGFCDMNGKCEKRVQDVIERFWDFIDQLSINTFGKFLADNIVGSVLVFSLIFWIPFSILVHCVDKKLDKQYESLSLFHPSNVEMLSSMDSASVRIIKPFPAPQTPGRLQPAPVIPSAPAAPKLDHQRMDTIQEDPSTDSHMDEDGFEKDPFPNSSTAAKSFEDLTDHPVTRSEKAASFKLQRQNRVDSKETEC
UniProt P08254, 100-477 limits assumed: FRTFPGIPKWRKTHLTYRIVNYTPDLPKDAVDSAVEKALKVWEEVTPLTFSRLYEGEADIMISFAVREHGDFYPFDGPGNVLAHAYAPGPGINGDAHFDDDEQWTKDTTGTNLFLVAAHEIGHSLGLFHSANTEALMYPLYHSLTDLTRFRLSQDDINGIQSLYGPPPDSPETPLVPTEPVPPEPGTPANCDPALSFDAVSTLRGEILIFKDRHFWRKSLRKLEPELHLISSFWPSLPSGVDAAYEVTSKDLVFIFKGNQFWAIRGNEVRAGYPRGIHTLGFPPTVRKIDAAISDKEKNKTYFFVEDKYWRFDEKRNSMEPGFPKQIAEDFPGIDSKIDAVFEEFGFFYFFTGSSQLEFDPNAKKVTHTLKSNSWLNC
UniProt P05979, 25-600 limits assumed: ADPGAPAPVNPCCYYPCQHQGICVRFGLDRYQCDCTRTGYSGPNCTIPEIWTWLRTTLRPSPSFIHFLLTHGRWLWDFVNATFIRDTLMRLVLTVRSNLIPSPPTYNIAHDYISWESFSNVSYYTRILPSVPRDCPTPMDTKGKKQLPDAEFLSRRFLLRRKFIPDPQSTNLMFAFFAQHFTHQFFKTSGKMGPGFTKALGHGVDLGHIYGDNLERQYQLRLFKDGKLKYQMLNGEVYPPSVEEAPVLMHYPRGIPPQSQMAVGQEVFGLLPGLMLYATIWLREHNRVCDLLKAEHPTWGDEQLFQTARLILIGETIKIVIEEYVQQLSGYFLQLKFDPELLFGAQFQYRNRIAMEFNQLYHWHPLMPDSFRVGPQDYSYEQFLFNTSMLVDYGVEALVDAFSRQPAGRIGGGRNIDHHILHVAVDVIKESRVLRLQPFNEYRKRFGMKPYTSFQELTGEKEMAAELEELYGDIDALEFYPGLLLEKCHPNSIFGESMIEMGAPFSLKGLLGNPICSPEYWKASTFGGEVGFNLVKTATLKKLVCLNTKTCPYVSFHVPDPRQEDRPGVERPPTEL
UniProt P08253, 110-660 limits assumed: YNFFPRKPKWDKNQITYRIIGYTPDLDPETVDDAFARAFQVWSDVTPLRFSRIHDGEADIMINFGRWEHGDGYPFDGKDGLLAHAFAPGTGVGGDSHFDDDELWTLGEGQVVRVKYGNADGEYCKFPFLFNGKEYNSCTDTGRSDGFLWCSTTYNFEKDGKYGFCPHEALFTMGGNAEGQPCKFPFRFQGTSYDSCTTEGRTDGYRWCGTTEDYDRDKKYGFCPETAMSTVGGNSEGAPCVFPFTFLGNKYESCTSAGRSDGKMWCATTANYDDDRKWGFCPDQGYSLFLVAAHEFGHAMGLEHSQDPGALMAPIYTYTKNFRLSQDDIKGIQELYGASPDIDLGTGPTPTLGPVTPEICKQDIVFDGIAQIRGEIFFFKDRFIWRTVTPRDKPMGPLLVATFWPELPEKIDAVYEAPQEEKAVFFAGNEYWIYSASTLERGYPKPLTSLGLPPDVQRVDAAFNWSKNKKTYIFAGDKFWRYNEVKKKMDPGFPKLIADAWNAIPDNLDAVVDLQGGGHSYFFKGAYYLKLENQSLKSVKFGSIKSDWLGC

What was measured:
Conditions in all cases: 100 μM
[1] = target: MMP-1 (Homo sapiens, UniProt P03956); assay: MMP-1 inhibition assay
[2] = target: TACE (Homo sapiens, UniProt P78536); assay: TACE inhibitor screening kit
[3] = target: MMP-3 (Homo sapiens, UniProt P08254); assay: MMP-3 inhibition assay
[4] = target: COX-1 (Ovis aries, UniProt P05979); assay: Fluorometric COX-1 inhibitor assay
[5] = target: MMP-2 (Homo sapiens, UniProt P08253); assay: MMP-2 inhibition assay

CC(C)CC(C(=O)Nc1ccc(S(=O)(=O)C(F)(F)F)cc1)P(=O)(O)O (centres unmarked)
n.i. (n.i. = <10% inhibition): % inhibition MMP-1 [1] | % inhibition TACE [2] | % inhibition MMP-3 [3] | % inhibition COX-1 [4] | % inhibition MMP-2 [5]
